Our source for the IC50 values is publication PMC10987480, “Biological and mutational analyses of CXCR4–antagonist interactions and design of new antagonistic analogs” (Bioscience Reports, 2023).

Chains of the proteins cited; added tags and fusions are not shown.
UniProt P61073, whole entry: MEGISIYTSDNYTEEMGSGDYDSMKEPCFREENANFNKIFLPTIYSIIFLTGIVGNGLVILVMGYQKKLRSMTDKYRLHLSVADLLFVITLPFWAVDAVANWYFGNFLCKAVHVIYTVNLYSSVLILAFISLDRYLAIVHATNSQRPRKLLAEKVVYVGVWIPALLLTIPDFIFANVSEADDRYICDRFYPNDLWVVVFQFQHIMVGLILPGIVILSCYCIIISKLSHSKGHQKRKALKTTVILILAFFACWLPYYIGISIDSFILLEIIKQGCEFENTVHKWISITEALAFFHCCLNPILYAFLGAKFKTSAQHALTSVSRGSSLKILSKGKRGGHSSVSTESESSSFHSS

Usually IC50 stands for the concentration that gives 50% inhibition.

For the assay, the target named is CXCR4 (Homo sapiens, UniProt P61073). Kind of assay: Competitive CXCR4 binding assay (12G5 antibody probe), wild-type CXCR4 transfected CHO cells. Set-up: expressed in transfected cells. To be noted: 250 ng/ml 12G5, 40 min on ice, FITC second antibody, mean ± S.E.M. of at least three independent experiments, SEM, read-out: IC50 (nM), inhibition of 12G5 binding to CXCR4. On the procedure:
The CXCR4-specific antibody, 12G5 was used as a probe for the competitive CXCR4 binding assay to evaluate the binding activity of CXCR4 antagonists.
Figure 1 Competitive CXCR4 binding curves of eleven CXCR4 antagonists The CXCR4 transfected CHO cells were incubated with different concentrations of antagonists and 250 ng/ml 12G5 antibody. The CXCR4-binding 12G5 antibody was recognized by FITC-conjugated anti-IgG second antibody. The cells treated with only second antibody were used as a negative control (0%) while cells treated with both 12G5 antibody and second antibody were used as a positive control (100%). Cells treated with CXCR4 antagonists were calculated in percentage relative to the positive and negative controls. The data were averages of at least three independent experiments and shown as mean ± standard error of the mean (S.E.M.).
The procedure for the CXCR4 competitive binding experiments was published previously. […] The fluorescence intensity was measured for excitation at 485 nm and emission at 535 nm using multimode plate reader (PerkinElmer). The IC50 values were calculated using graphpad Prism 7. […]

With `NCCCCN(Cc1nc2ccccc2[nH]1)[C@H]1CCCc2cccnc21` [AMD11070], the IC50 is 15.6 ± 7.6 nM.
